Results reported in patent publication US20240199648A1, “MAP4K1 INHIBITORS” (Blueprint Medicines Corporation, priority 2021, published 2024).

Amino acid sequences for entries named in this document (tags omitted).
UniProt Q92918, whole entry: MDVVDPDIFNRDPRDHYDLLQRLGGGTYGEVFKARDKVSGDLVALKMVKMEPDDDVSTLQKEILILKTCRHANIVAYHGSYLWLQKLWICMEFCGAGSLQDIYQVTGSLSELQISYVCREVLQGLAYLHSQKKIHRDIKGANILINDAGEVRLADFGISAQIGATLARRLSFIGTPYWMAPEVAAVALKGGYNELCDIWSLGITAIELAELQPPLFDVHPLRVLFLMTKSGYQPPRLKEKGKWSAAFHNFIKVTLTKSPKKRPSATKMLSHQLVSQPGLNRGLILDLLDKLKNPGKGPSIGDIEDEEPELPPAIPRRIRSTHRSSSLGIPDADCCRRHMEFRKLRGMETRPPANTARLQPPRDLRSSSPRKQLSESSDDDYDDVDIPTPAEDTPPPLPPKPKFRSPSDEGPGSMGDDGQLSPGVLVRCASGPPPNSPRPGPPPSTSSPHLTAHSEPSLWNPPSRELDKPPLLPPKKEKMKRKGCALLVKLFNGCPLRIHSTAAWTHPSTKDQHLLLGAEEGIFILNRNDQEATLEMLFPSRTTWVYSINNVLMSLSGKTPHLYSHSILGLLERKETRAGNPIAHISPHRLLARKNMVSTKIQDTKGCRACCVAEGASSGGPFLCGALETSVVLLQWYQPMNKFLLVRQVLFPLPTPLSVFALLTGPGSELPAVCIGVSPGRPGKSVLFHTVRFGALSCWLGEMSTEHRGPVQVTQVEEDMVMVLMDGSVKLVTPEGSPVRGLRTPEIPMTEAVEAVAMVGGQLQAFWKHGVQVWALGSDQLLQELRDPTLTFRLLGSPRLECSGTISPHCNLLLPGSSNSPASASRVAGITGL

Assays:
Primary T Cell = assay: T cell enhancement of cytokines: IL2 measurement (HTRF) in expanded CD3+ T cells stimulated with anti-CD3/anti-CD28; settings: read-out: IL-2 Primary T Cell EC50, plate-bound anti-CD3 and soluble anti-CD28, 24 h
Method: T cells are isolated from whole blood of healthy donors by immunomagnetic negative selection following manufacture's protocol (StemCell Technologies, human T cell isolation kit). Purity of isolated cells is assessed by flow cytometry and yields 95-98% CD3^+ T cells. For expansion of T cells, 1×10^6 cells/well are plated in serum free cell expansion media (ThermoFisher) containing 30U of recombinant human IL2 (R&D) and stimulated with 25 ul of CD3/CD28 beads (Invitrogen) in 24 well plates for 3-4 days. T cells are then expanded in 175 cm flasks and maintained at a cell density of 1 to 2.5×10^6 cells/ml days by addition of ⅔ of fresh media every 2-3 days. After 10-14 days, cells are frozen in BamBanker freezing media (Thermo) and stored in liquid nitrogen.
For IL2 measurement, expanded CD3+ T cells are dispensed at 100K cells/well (cultured in X-VIVO 10 Serum-free media) and are stimulated with plate-bound anti-CD3 and soluble anti-CD28 in the presence of vehicle or compound of the disclosure at various concentrations for 24 h. As outlined in the manufacturer's protocol (Cisbio), 16 μL of conditioned media is transferred to a white 384-well low volume plate. Following a 24 h incubation with the anti-IL2 antibodies, the homogenous time resolved fluorescence (HTRF) is measured.

MAP4K1 (HPK1) = MAP4K1 (HPK1) (Homo sapiens, UniProt Q92918); assay: Inhibition of MAP4K1 biochemical enzymatic activity (EZReader 2 electrophoretic mobility shift assay); settings: read-out: MAP4K1 IC50; HPK1 (Invitrogen), S6K2tide 1.5 μM, 120 min; ATP 26 μM or 1000 μM (not stated which)
From the text: MAP4K1 (HPK1) and relevant off-target enzymatic activity was monitored using the Perkin Elmer electrophoretic mobility shift technology platform—the EZReader 2. […] Within the linear, steady-state phase of the kinase enzymatic reaction, the mixed pool of phosphorylated (product) and non-phosphorylated (substrate) peptides was passed through the microfluidic system of the PerkinElmer EZ Reader 2, under an applied electric potential difference. The presence of the phosphate group on the product peptide provided a difference in mass and charge between that of the substrate peptide, resulting in a separation of the substrate and product pools in the sample (Perrin et al. 2010). As the product and substrate peptide mixture passes the lasers within the instrument, these pools are detected (λex=488 nm, λem=568 nm) and resolved as separate peaks. […]
Enzyme activity assays at the ^APPKM for ATP or 1 mM ATP: In each well of a 384-well plate, 0.1-15 nM of untreated enzyme was incubated in a total of 13 μL of buffer (100 mM HEPES pH 7.5, 0.015% Brij 35, 10 mM MgCl2, 1 mM DTT) with 1.5 μM fluorescent peptid and 20-1000 μM ATP, at 25° C., for 60-180 minutes in the presence or absence of a dosed concentration series of compound (1% DMSO final concentration). […] The plates were read on a Caliper EZReader 2 as described above.

| EC50 (Primary T Cell) [nM] | IC50 (MAP4K1 (HPK1)) [nM] | SMILES |
| --- | --- | --- |
| 577 | 0.24 | CCC(N)c1ccc(OC2CN(C(=O)[C@H]3C[C@H]3F)C2)c2cnc(Nc3ccc4c(n3)[C@@H](C)C(C)(C)OC4=O)cc12 (stereo partly shown) |
| 50 | 0.22 | COC[C@@](C)(N)c1cnc(O[C@H]2C[C@@H](C(=O)N(C)C)C2)c2cnc(Nc3ccc4c(n3)[C@@H](C)[C@H](C)OC4=O)cc12 |
